# Reference: PubChem BioAssay AID588850 (Sanford-Burnham Center for Chemical Genomics, 2011)
# The entries are a selection whose mix differs from that of the whole data set. Activity calls are given as the source filed them.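 The calls were made as follows: active = at least 50% inhibition at 5 µM, scaled per plate between neutral and stimulator controls; inactive = the rest.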
# Assay: NF-kB reporter blockers in CF airway cells – cell-based, GFP fluorescence, uHTS, primary screen (AID 588850);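 also: PAF is a Pseudomonas aeruginosa culture filtrate used as stimulus; plate controls were PAF-stimulated DMSO wells for no effect and unstimulated DMSO wells for full effect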
# Conditions: KKLEB NF-kB-GFP reporter, PAF-induced, GFP fluorescence overnight; at 5 µM; hits give high values
row,SMILES,inhibition
1,CC(C)(C)OC(=O)N1CCC(N(C(=O)c2ccccc2)c2ccc(Cl)cc2)CC1,inactive: 8.4%
2,N#Cc1ccc(C(=O)NCC2(N3CCCCC3)CCCCC2)cc1,inactive: 3.5%
3,CC(C)(C)n1nnnc1C(c1cccc2ccccc12)N1CCC(n2c(=O)[nH]c3ccccc32)CC1 (configuration not stated),inactive: -18.4%
4,O=c1[nH]c2ccccc2n1C1CCN(C(c2ccccc2)c2nnnn2C2CCCC2)CC1 (configuration not stated),inactive: 3.5%
5,CCCN1CCC(Nc2cc(OC)cc(OC)c2)CC1,inactive: -6%
6,Cc1cc(N(CCCl)CCCl)ccc1C=O,inactive: -11.5%
7,c1ccc(CN2CCC(Nc3ccccc3)CC2)cc1,inactive: -11.2%
8,CN(C)C1(CNC(=O)c2cccc(C#N)c2)CCCCC1,inactive: -8.4%
9,O=c1[nH]c2ccccc2n1C1CCN(C(c2ccnc3ccccc23)c2nnnn2C2CCCC2)CC1 (configuration not stated),inactive: -2.1%
10,COc1ccc(C(=O)NCC2(N3CCOCC3)CCCCC2)cc1OC,inactive: -17.3%
11,O=c1[nH]c2ccccc2n1C1CCN(C(c2cccs2)c2nnnn2C2CCCCC2)CC1 (configuration not stated),inactive: 24.4%
12,O=C(NCC1(N2CCOCC2)CCCCC1)c1cc(Br)ccc1Cl,inactive: -37%
13,COc1cc(C(=O)NCC2(N3CCOCC3)CCCCC2)cc(OC)c1C,inactive: 23.8%
14,CCCCn1nnnc1C(c1ccccc1)N1CCC(n2c(=O)[nH]c3ccccc32)CC1 (configuration not stated),inactive: -0.7%
15,CCCCn1nnnc1C(c1cccc(OC)c1OC)N1CCC(n2c(=O)[nH]c3ccccc32)CC1 (configuration not stated),inactive: -11.4%
16,O=c1[nH]c2ccccc2n1C1CCN(C(c2cccs2)c2nnnn2C2CCCC2)CC1 (configuration not stated),inactive: 10%
17,O=C(OC1CN2CCC1CC2)C1c2ccccc2C=Cc2ccccc21 (configuration not stated),inactive: 0.2%
18,N/C(=N\O)c1c(N)no[n+]1[O-],inactive: 8.6%
19,COc1cccc(C(c2nnnn2C(C)(C)C)N2CCC(n3c(=O)[nH]c4ccccc43)CC2)c1OC (configuration not stated),inactive: -18.5%
20,CCOC(=O)N1CCC(Nc2ccc(C)cc2)CC1,inactive: 4.8%
21,CCCOc1ccc(C(=O)NCC2(N(C)C)CCCCC2)cc1,inactive: -8.1%
22,O=c1[nH]c2ccccc2n1C1CCN(C(c2cc3ccccc3o2)c2nnnn2C2CCCC2)CC1 (configuration not stated),inactive: 0%

row,SMILES,inhibition
1,O=C(O)C1(Nc2ccccc2)CCN(Cc2ccccc2)CC1,inactive: -8.7%
2,CC(C)(C)OC(=O)N1CCC(Nc2ccccc2)CC1,inactive: 2.2%
3,CN1CCC(Nc2ccc(F)c(Cl)c2)CC1,inactive: 13.3%
4,CCOc1ncccc1C(=O)NCC1(N2CCOCC2)CCCCC1,inactive: 12.1%
5,CN1CCC(Nc2ccc(Cl)cc2)CC1,inactive: 0.3%
6,CCC(CO)(C(=O)OC1CN2CCC1CC2)c1ccccc1 (configuration not stated),inactive: 2.2%
7,COc1cccc(C(=O)N(c2cc(C)cc(C)c2)C2CCN(C(=O)OC(C)(C)C)CC2)c1,inactive: 13.1%
8,COc1cccc(C(c2nnnn2C2CCCC2)N2CCC(n3c(=O)[nH]c4ccccc43)CC2)c1OC (configuration not stated),inactive: -20.5%
9,COc1cc(OC)cc(C(=O)NCC2(N3CCOCC3)CCCCC2)c1,inactive: -1.8%
10,Cc1ccc(NC2(C#N)CCN(Cc3ccccc3)CC2)cc1,inactive: 9.3%
11,Fc1ccccc1NC1CCN(Cc2ccccc2)CC1,inactive: 0.8%
12,Cc1ccc(C(=O)NCC2(N3CCCCC3)CCCCC2)o1,inactive: 32.9%
13,O=c1[nH]c2ccccc2n1C1CCN(C(c2ccnc3ccccc23)c2nnnn2C2CCCCC2)CC1 (configuration not stated),inactive: 19.6%
14,COc1cc(OC)cc(C(=O)NCC2(N3CCCCC3)CCCCC2)c1,inactive: -5.1%
15,CCC(c1nnnn1C1CCCCC1)N1CCC(n2c(=O)[nH]c3ccccc32)CC1 (configuration not stated),inactive: 1.3%
16,CC(=O)N(c1ccccc1)C1CCNCC1,inactive: 5.5%
17,COc1cccc(C(c2nnnn2C2CCCCC2)N2CCC(n3c(=O)[nH]c4ccccc43)CC2)c1OC (configuration not stated),inactive: 8.3%
18,Cn1c(=O)[nH]cc(N(CCCl)CCCl)c1=O,inactive: -17.2%
19,CN(C)c1ccc(C(=O)NCC2(N3CCCCC3)CCCCC2)cc1,inactive: -0.1%
20,O=C(NCC1(N2CCCCC2)CCCCC1)c1ccco1,inactive: -10.1%
21,CC(C)(C)n1nnnc1C(c1ccnc2ccccc12)N1CCC(n2c(=O)[nH]c3ccccc32)CC1 (configuration not stated),inactive: -11.4%
22,COc1ccc(C(c2nnnn2C2CCCCC2)N2CCC(n3c(=O)[nH]c4ccccc43)CC2)cc1 (configuration not stated),inactive: 8.6%

row,SMILES,inhibition
1,CCN1CCC(Nc2cccc(F)c2)CC1,inactive: -26.3%
2,Cc1ccccc1NC1(C#N)CCN(Cc2ccccc2)CC1,inactive: 4.2%
3,CCOC(=O)N1CCC(Nc2ccc(F)cc2)CC1,inactive: -13.4%
4,COc1ccc(NC2CCN(CCc3ccccc3)CC2)c(OC)c1,inactive: -3.6%
5,O=C(NCC1(N2CCCCC2)CCCCC1)c1ccc(F)cc1,inactive: 8.6%
6,CCCCOc1ccc(C(=O)NCC2(N3CCOCC3)CCCCC2)cc1,inactive: -8.4%
7,O=P1(N(CCCl)CCCl)SCCCS1,inactive: -2.5%
8,CCCCn1nnnc1C(c1cc2ccccc2o1)N1CCC(n2c(=O)[nH]c3ccccc32)CC1 (configuration not stated),inactive: 42.4%
9,CCOc1ccc(C)cc1CN(CCCl)CCCl,inactive: 1.2%
10,O=C1CCN(Cc2ccccc2)CC1,inactive: 8.1%
11,CC(C)(C)n1nnnc1C(c1ccccc1)N1CCC(n2c(=O)[nH]c3ccccc32)CC1 (configuration not stated),inactive: -17.9%
12,O=c1[nH]c2ccccc2n1C1CCN(C(c2cccc3ccccc23)c2nnnn2C2CCCC2)CC1 (configuration not stated),inactive: 11.3%
13,COc1cc(C(=O)NCC2(N(C)C)CCCCC2)ccc1OC(F)F,inactive: 6.5%
14,CCOC(=O)N1CCC(Nc2cccc(C)c2)CC1,inactive: 11.6%
15,O=c1[nH]c2ccccc2n1C1CCN(C(c2ccccc2)c2nnnn2C2CCCCC2)CC1 (configuration not stated),inactive: -9.2%
16,Cc1cccc(NC2(C#N)CCN(Cc3ccccc3)CC2)c1,inactive: -9.1%
17,CSc1ccccc1C(=O)NCC1(N2CCCCC2)CCCCC1,inactive: 2.5%
18,CCCCn1nnnc1C(c1cccs1)N1CCC(n2c(=O)[nH]c3ccccc32)CC1 (configuration not stated),active: 77.2%
19,CCCCn1nnnc1C(CC)N1CCC(n2c(=O)[nH]c3ccccc32)CC1 (configuration not stated),inactive: -2.7%
20,O=C(NCC1(N2CCCCC2)CCCCC1)c1cccs1,inactive: 4.4%
21,O=C(NCC1(N2CCCCC2)CCCCC1)c1ccc(=O)[nH]c1,inactive: -18.8%
22,CCC(c1nnnn1C1CCCC1)N1CCC(n2c(=O)[nH]c3ccccc32)CC1 (configuration not stated),inactive: -9.2%

row,SMILES,inhibition
1,COc1ccc(C(=O)NCC2(N3CCCCC3)CCCCC2)c(OC)c1OC,inactive: -0.8%
2,CC(C)(C)OC(=O)N1CCC(N(C(=O)c2ccccc2)c2ccc(F)cc2)CC1,inactive: 3.2%
3,COc1ccc(C(=O)NCC2(N3CCCCC3)CCCCC2)cc1,inactive: -4.2%
4,CCCCn1nnnc1C(c1ccc(OC)cc1)N1CCC(n2c(=O)[nH]c3ccccc32)CC1 (configuration not stated),inactive: -7.7%
5,CCOC(=O)N1CCC(Nc2ccc(OC)cc2)CC1,inactive: -3.3%
6,COc1ccc(Cl)cc1C(=O)NCC1(N2CCOCC2)CCCCC1,inactive: 1.1%
7,O=c1[nH]c2ccccc2n1C1CCN(C(c2cc3ccccc3o2)c2nnnn2C2CCCCC2)CC1 (configuration not stated),inactive: 21.7%
8,O=C(OC1CN2CCC1CC2)C1c2ccccc2Oc2ccccc21 (configuration not stated),inactive: -10%
9,N#CC1(Nc2ccccc2)CCN(Cc2ccccc2)CC1,inactive: -16.7%
10,O=C(NCC1(N2CCCCC2)CCCCC1)c1ccc(Cl)s1,inactive: -4.1%
11,O=C(NCC1(N2CCOCC2)CCCCC1)c1cc2ccccc2o1,inactive: 0.3%
12,Cc1cc(C)cc(N(C(=O)c2ccccc2)C2CCN(C(=O)OC(C)(C)C)CC2)c1,inactive: 6.9%
13,O=c1[nH]c2ccccc2n1C1CCN(C(c2ccccc2OC(F)(F)F)c2nnnn2C2CCCCC2)CC1 (configuration not stated),inactive: 0.1%
14,O=C(NCC1(N2CCCCC2)CCCCC1)c1ccc(Cl)nc1,inactive: 14.6%
15,CCCCn1nnnc1C(c1ccnc2ccccc12)N1CCC(n2c(=O)[nH]c3ccccc32)CC1 (configuration not stated),inactive: -10.9%
16,O=C(NCC1(N2CCOCC2)CCCCC1)c1cc(F)c(F)cc1Cl,inactive: 5.5%
17,CCC(c1nnnn1C(C)(C)C)N1CCC(n2c(=O)[nH]c3ccccc32)CC1 (configuration not stated),inactive: 15.7%
18,COc1cc(OC)c(C(=O)NCC2(N(C)C)CCCCC2)cc1OC,inactive: 3.3%
19,CN(C)c1cccc(C(=O)NCC2(N3CCCCC3)CCCCC2)c1,inactive: 7.7%
20,COc1ccc(CN(CCCl)CCCl)cc1Cl,inactive: 1.6%
21,CC(C)c1ccc(NC2CCN(C(=O)OC(C)(C)C)CC2)cc1,inactive: 13.2%
22,CCCCn1nnnc1C(c1ccccc1OC(F)(F)F)N1CCC(n2c(=O)[nH]c3ccccc32)CC1 (configuration not stated),inactive: 23.7%

row,SMILES,inhibition
1,CCCOc1ccc(C(=O)NCC2(N(C)C)CCCCC2)cc1OC,inactive: 21.7%
2,Cc1ccc(C(=O)NCC2(N(C)C)CCCCC2)o1,inactive: 12.2%
3,COc1ccc(C(c2nnnn2C2CCCC2)N2CCC(n3c(=O)[nH]c4ccccc43)CC2)cc1 (configuration not stated),inactive: -31.7%
4,O=C(NCC1(N2CCCCC2)CCCCC1)c1cncc(Br)c1,inactive: 9.5%
5,CN1CCC(Nc2cccc(F)c2)CC1,inactive: 9.4%
6,CSc1ccc(C(=O)NCC2(N3CCOCC3)CCCCC2)cc1,inactive: -22.8%
7,O=C(NCC1(N2CCCCC2)CCCCC1)c1cccc([N+](=O)[O-])c1,inactive: -6%
8,N#CC1(Nc2ccccc2)CCN(CCc2ccccc2)CC1,inactive: -3.7%
9,O=c1[nH]c2ccccc2n1C1CCN(C(c2ccccc2OC(F)(F)F)c2nnnn2C2CCCC2)CC1 (configuration not stated),inactive: 7.8%
10,CCN1CCC(Nc2ccc(Cl)cc2)CC1,inactive: 14.4%
11,O=C(NCC1(N2CCCCC2)CCCCC1)c1ccc(OC(F)F)cc1,inactive: 0.6%
12,CC(C)(C)n1nnnc1C(c1ccccc1OC(F)(F)F)N1CCC(n2c(=O)[nH]c3ccccc32)CC1 (configuration not stated),inactive: 20.4%
13,CCCCn1nnnc1C(c1cccc2ccccc12)N1CCC(n2c(=O)[nH]c3ccccc32)CC1 (configuration not stated),inactive: -9.7%
14,COc1ccc(NC2CCN(C(=O)OC(C)(C)C)CC2)cc1,inactive: 0.7%
15,CC(C)c1ccc(C(=O)NCC2(N3CCOCC3)CCCCC2)cc1,inactive: 13.7%
16,CN1CCN(CCOC(=O)C(O)(c2ccccc2)c2ccccc2)CC1,inactive: 1.5%
17,O=C(NCC1(N2CCOCC2)CCCCC1)c1cc(=O)[nH]c2ccccc12,inactive: -5.2%
18,COc1cc(C(=O)NCC2(N3CCCCC3)CCCCC2)ccc1OC(F)F,inactive: -15.5%
19,O=C(NCC1(N2CCCCC2)CCCCC1)c1cccc(C(F)(F)F)c1,inactive: -4.5%
